Data reported in patent publication US5574012A, “Analogs of hirudin having anti-platelet activity” (Merrell Pharmaceuticals Inc., priority 1995, dated 1996).

What follows are compounds tested against thrombin (Bos taurus, UniProt P00735) (assay: biochemical).
Design: species or system Bovine

In order of falling IC50:
1. CC[C@H](C)[C@H](NC(=O)[C@@H]1CCCN1C(=O)[C@H](CCC(=O)O)NC(=O)[C@H](Cc1ccc(OC)cc1)NC(=O)[C@H](CC(=O)O)NC(=O)CNC(=O)CCCCNC(=N)N)C(=O)N1CCC[C@H]1C(=O)N[C@@H](CCC(=O)O)C(=O)N[C@@H](CCC(=O)O)C(=O)N[C@@H](C)C(=O)N[C@@H](CC1CCCCC1)C(=O)N[C@H](CCC(=O)O)C(=O)O [Example 6, 5GP-Gly-Asp-Tyr(OCH3)-Glu-Pro-Ile-Pro-Glu-Glu-Ala-Cha-glu-OH]  5.9 µM
2. CC[C@H](C)[C@H](NC(=O)[C@@H]1CCCN1C(=O)[C@H](CCC(=O)O)NC(=O)[C@H](Cc1ccc(OC)cc1)NC(=O)[C@H](CC(=O)O)NC(=O)CNC(=O)CCCCN)C(=O)N1CCC[C@H]1C(=O)N[C@@H](CCC(=O)O)C(=O)N[C@@H](CCC(=O)O)C(=O)N[C@@H](C)C(=O)N[C@@H](CC1CCCCC1)C(=O)N[C@H](CCC(=O)O)C(=O)O [Example 4, 5AP-Gly-Asp-Tyr(OCH3)-Glu-Pro-Ile-Pro-Glu-Glu-Ala-Cha-glu-OH]  5.4 µM
3. CC[C@H](C)[C@H](NC(=O)[C@@H]1CCCN1C(=O)[C@H](CCC(=O)O)NC(=O)[C@H](Cc1c[nH]c2ccccc12)NC(=O)[C@H](CC(=O)O)NC(=O)CNC(=O)CCCCNC(=N)N)C(=O)N1CCC[C@H]1C(=O)N[C@@H](CCC(=O)O)C(=O)N[C@@H](CCC(=O)O)C(=O)N[C@@H](C)C(=O)N[C@@H](CC1CCCCC1)C(=O)N[C@H](CCC(=O)O)C(=O)O [Example 1]  1.6 µM
